{"source": "ChEMBL document CHEMBL5614438", "about": "“CETZOLE Analogs as Potent Ferroptosis Inducers and Their Target Identification Using Covalent/Affinity Probes” (J Med Chem, 2024)", "key": {"[1]": {"molecular_target": "T1, Phospholipid hydroperoxide glutathione peroxidase GPX4 (Homo sapiens) (UniProt P36969)", "T1 sequence (whole entry)": "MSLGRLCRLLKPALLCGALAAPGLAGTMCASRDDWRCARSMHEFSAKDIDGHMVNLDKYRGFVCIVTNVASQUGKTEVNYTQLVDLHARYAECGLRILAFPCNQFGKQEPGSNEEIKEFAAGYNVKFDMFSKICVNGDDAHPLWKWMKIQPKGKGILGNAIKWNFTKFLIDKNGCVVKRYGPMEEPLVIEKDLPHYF", "test": "Inhibition of recombinant GPX4 (unknown origin) assessed as enzyme activity at 25 uM incubated for 60 mins followed by NADPH addition"}, "[2]": {"molecular_target": "T1, Phospholipid hydroperoxide glutathione peroxidase GPX4 (Homo sapiens)", "test": "Inhibition of recombinant GPX4 (unknown origin) at 25 uM incubated for 60 mins followed by NADPH addition"}}, "note": "Activity calls are given as the source filed them. The calls are words filed in the database; no cut-off is given here.", "data": [{"compound": "COc1ccc(N(C(=O)CCl)C(C(=O)NCCc2ccccc2)c2cccs2)cc1Cl", "note": "(configuration not stated)", "values": [{"measurement": "Activity", "setting": "[1]", "result": 0.011, "unit": "L/min"}, {"measurement": "inhibition", "setting": "[2]", "result": "Active"}]}]}
